Values quoted from earlier work as cited in patent US12312352B2, “Use of a DPP-4 inhibitor in SIRS and/or sepsis” (Boehringer ingelheim International GmbH, priority 2012, dated 2025).

Test system: septic animals
Conditions: previous studies; cited from earlier work

## CC#CCn1c(N2CCC[C@@H](N)C2)nc2c1c(=O)n(Cc1nc(C)c3ccccc3n1)c(=O)n2C [linagliptin]
  sepsis-induced increases in DPP-4 activity: suppression of sepsis-induced increases in DPP-4 activity
